This passage reports IC50 results from ChEMBL document CHEMBL1131307, “Novel nonnucleoside inhibitors of HIV-1 reverse transcriptase. 8. 8-Aryloxymethyl- and 8-arylthiomethyldipyridodiazepinones” (J Med Chem, 1998).

The assay concerns the target Human immunodeficiency virus type 1 reverse transcriptase (Human immunodeficiency virus 1, UniProt Q72547). The experiment in a line: Inhibitory activity against HIV-1 wild-type reverse transcriptase.

As a reminder, the IC50 is the concentration at which inhibition is half-maximal. Take `CCN1c2ncc(COc3ccccc3F)cc2C(=O)N(C)c2ccc(Cl)nc21`: the 50% inhibitory concentration (IC50) was found to be 170 nM. For `CCN1c2ncc(COc3cccc(O)c3)cc2C(=O)N(C)c2ccc(Cl)nc21`, 130 nM corresponded to half-maximal inhibition (IC50).
